Experimental data reported in patent publication US9453842B2, “Inhibition of peroxidase enzymatic activity” (Roche Molecular Systems, Inc., priority 2006, dated 2016).
Several values for one entry are separate records, joined by “and”; a condition that tells them apart may be missing. Identical values can stand only once.

Biological target: T1, HRP (Armoracia rusticana, UniProt P00433)
T1 sequence (P00433 31-338): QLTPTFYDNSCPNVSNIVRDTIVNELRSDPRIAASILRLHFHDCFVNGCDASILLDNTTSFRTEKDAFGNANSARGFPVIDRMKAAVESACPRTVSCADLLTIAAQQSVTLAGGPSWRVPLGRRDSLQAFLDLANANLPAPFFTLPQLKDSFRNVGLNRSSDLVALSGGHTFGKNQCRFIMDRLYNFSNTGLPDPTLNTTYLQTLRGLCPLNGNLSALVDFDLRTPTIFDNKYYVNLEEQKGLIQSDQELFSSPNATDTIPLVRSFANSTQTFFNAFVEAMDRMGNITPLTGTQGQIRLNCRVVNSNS
Assay: Inhibition of 1 mU of HRP activity using heavy metal salts and other compounds as stop reagents (ABTS, 96-well plate)

In the case of `O=S(=O)([O-])[O-].[Cu+2]` [(vi), Copper(II) sulfate], the “Absorbance at 405 nm” value is reported as 1.765 and 1.842 and 1.077 and 1.646 and 1.669 and 1.767 and 1.831.
